The record followed here is ChEMBL document CHEMBL4251569, “Camptothecin-psammaplin A hybrids as topoisomerase I and HDAC dual-action inhibitors” (Eur J Med Chem, 2018).

By UniProt entry, the sequences of proteins in these tests, tags left out. Where a name states a change or a piece, a line headed by the entry shows the natural chain unless it says otherwise.
UniProt P56524: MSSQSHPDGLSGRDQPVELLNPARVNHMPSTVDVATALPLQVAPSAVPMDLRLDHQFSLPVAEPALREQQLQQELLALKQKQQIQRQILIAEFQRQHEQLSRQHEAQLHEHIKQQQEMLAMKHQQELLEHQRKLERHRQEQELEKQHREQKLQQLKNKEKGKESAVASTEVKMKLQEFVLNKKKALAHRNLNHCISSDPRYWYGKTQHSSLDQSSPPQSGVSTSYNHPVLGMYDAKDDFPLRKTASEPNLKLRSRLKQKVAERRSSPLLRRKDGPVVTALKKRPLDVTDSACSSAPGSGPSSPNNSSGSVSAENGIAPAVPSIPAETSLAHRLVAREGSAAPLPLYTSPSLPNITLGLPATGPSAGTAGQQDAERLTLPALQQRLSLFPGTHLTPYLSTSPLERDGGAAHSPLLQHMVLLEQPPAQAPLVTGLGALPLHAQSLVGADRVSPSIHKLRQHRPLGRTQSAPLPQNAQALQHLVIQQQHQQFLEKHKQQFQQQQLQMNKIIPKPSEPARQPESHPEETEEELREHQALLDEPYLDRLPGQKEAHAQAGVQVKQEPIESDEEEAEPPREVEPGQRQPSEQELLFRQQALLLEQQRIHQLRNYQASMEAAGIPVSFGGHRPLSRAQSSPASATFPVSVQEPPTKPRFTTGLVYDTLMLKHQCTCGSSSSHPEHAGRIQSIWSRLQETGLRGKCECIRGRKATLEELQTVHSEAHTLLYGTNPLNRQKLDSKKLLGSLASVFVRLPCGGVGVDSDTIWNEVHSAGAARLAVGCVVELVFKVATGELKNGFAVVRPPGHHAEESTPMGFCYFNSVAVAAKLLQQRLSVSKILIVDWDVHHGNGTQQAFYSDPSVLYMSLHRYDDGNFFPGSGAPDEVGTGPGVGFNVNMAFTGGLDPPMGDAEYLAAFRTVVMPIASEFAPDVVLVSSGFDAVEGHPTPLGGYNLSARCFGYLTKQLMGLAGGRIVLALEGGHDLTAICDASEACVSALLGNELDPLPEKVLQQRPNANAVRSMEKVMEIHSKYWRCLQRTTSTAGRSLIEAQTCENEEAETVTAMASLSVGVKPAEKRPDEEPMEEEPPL

Assay [1] addresses T1, Histone deacetylase 4 (Homo sapiens, UniProt P56524). Description: Inhibition of HDAC4 (unknown origin) using fluorogenic substrate as substrate assessed as remaining activity at 1 x 10^-5 M after 1 to 2 hrs by fluorescence assay.
Assay [2] has as its target T1, Histone deacetylase 4. Description: Inhibition of HDAC4 (unknown origin) using fluorogenic substrate as substrate assessed as remaining activity at 3.33 x 10^-6 M after 1 to 2 hrs by fluorescence assay.
The target in assay [3] is T1, Histone deacetylase 4. Description: Inhibition of HDAC4 (unknown origin) using fluorogenic substrate as substrate assessed as remaining activity at 1.11 x 10^-6 M after 1 to 2 hrs by fluorescence assay.
In assay [4] the target is T1, Histone deacetylase 4. Description: Inhibition of HDAC4 (unknown origin) using fluorogenic substrate as substrate assessed as remaining activity at 3.70 x 10^-7 M after 1 to 2 hrs by fluorescence assay.
The target in assay [5] is T1, Histone deacetylase 4. The assay can be described thus: Inhibition of HDAC4 (unknown origin) using fluorogenic substrate as substrate assessed as remaining activity at 1.23 x 10^-7 M after 1 to 2 hrs by fluorescence assay.
Assay [6] deals with T1, Histone deacetylase 4. Description: Inhibition of HDAC4 (unknown origin) using fluorogenic substrate as substrate assessed as remaining activity at 4.12 x 10^-8 M after 1 to 2 hrs by fluorescence assay.
Assay [7] addresses T1, Histone deacetylase 4. Description: Inhibition of HDAC4 (unknown origin) using fluorogenic substrate as substrate assessed as remaining activity at 1.37 x 10^-8 M after 1 to 2 hrs by fluorescence assay.
The target of assay [8] is T1, Histone deacetylase 4. Description: Inhibition of HDAC4 (unknown origin) using fluorogenic substrate as substrate assessed as remaining activity at 4.57 x 10^-9 M after 1 to 2 hrs by fluorescence assay.
Assay [9] has as its target T1, Histone deacetylase 4. Description: Inhibition of HDAC4 (unknown origin) using fluorogenic substrate as substrate assessed as remaining activity at 1.52 x 10^-9 M after 1 to 2 hrs by fluorescence assay.
In assay [10] the target is T1, Histone deacetylase 4. Description: Inhibition of HDAC4 (unknown origin) using fluorogenic substrate as substrate assessed as remaining activity at 5.08 x 10^-10 M after 1 to 2 hrs by fluorescence assay.

Regarding `O=C(NCC1(c2nc(-c3ccccc3)cs2)CCOCC1)c1cccc(-c2noc(C(F)(F)F)n2)c1`, the Activity on Histone deacetylase 4 [1] is 3.26%; at Histone deacetylase 4 [2], 8.15%; on Histone deacetylase 4 [3], 23%; on Histone deacetylase 4 [4], 46.3%; on Histone deacetylase 4 [5], 77.8%; at Histone deacetylase 4 [6] it was 92.6%. The Activity is 101% on Histone deacetylase 4 [7], 106% at Histone deacetylase 4 [8], 95.3% at Histone deacetylase 4 [9] and 99.5% on Histone deacetylase 4 [10].
Consider `CC[C@@]1(O)C(=O)OCc2c1cc1n(c2=O)Cc2c-1nc1ccccc1c2/C=N/OCCCCCC(=O)NCCSSCCNC(=O)/C(Cc1ccc(O)c(Br)c1)=N\O`, for which the Activity at Histone deacetylase 4 [1] is 77.1%; on Histone deacetylase 4 [2], 87.6%; on Histone deacetylase 4 [3], 101%; at Histone deacetylase 4 [4], 99.1%; on Histone deacetylase 4 [5], 102%; at Histone deacetylase 4 [6], 104%. The Activity at Histone deacetylase 4 [7] is 103%; at Histone deacetylase 4 [8], 109%; at Histone deacetylase 4 [9], 108%; at Histone deacetylase 4 [10], 109%.
For `CC[C@@]1(O)C(=O)OCc2c1cc1n(c2=O)Cc2c-1nc1ccc(O)cc1c2/C=N/OCCCCCC(=O)NCCSSCCNC(=O)/C(Cc1ccc(O)c(Br)c1)=N\O`, the Activity amounted to 101% on Histone deacetylase 4 [1]; 100% at Histone deacetylase 4 [2]; 102% on Histone deacetylase 4 [3]; 106% on Histone deacetylase 4 [4]; 109% at Histone deacetylase 4 [5]; 109% on Histone deacetylase 4 [6]. The Activity turned out to be 116% on Histone deacetylase 4 [7], 112% on Histone deacetylase 4 [8], 111% on Histone deacetylase 4 [9] and 104% on Histone deacetylase 4 [10].
